# Experimental data reported in patent EP1635833B1 (priority 2003, dated 2004).
# How the values were obtained:
# [1] = tested on: opioid-induced PCO2 increases; assay: Respiratory depression: arterial blood PCO2 in rats; conditions: 40 mg/kg s.c. Compound 95 added to the opioids (fentanyl, morphine), especially at the highest doses tested
# [2] = tested on: opioid-induced PCO2 increases; assay: Respiratory depression: arterial blood PCO2 in gerbils; conditions: 10 mg/kg s.c. Compound 95 added to fentanyl 0.63 mg/kg s.c.
# [3] = tested on: opioid-induced PCO2 increases; assay: Respiratory depression: arterial blood PCO2 in guinea pigs; conditions: Compound 95 added to fentanyl
# [4] = Compound 95 at doses ranging from 0.63 to 40 mg/kg s.c.
structure (smiles),measurement,setting,value
"Cc1cccc(C)c1NC(=O)CN1CCN(C2CCN(C(=O)c3cc(C(F)(F)F)cc(C(F)(F)F)c3)C(Cc3ccccc3)C2)CC1 (single isomer, unassigned)",antagonism of the fentanyl cue,fentanyl cue; [4],nor any antagonism
same,generalization to the fentanyl cue,fentanyl cue; [4],did not show any generalization
same,stimulus generalization of fentanyl,fentanyl cue; pretreatment with 10 or 40 mg/kg Compound 95,did not affect
same,opioid-induced increases in PCO2,[1],some attenuation
same,opioid-induced PCO2 levels,[2],significant decreases
same,opioid-induced PCO2 levels,[3],reductions in the opioid-induced PCO2 levels
